Test results reported in ChEMBL document CHEMBL1124743, “Development of a novel series of (2-quinolinylmethoxy)phenyl-containing compounds as high-affinity leukotriene receptor antagonists. 1. Initial structure-activity relationships” (J Med Chem, 1990).

System: Cysteinyl leukotriene receptor (Cavia porcellus)
Assay: inhibition of the spasmogenic activity of LTD4 in guinea pig parenchymal strips at 10 uM.

Row | inhibition | SMILES
1 | 10% | c1ccc(OCc2ccc3ccccc3n2)c(OCCCc2nnn[nH]2)c1
2 | 50% | c1ccc2nc(COCc3ccc(OCCCc4nnn[nH]4)cc3)ccc2c1
